Data set [1] has as its target HadD AJ1 (D-2-haloacid dehalogenase, D-DEX) (Pseudomonas putida, UniProt Q52086). To be noted: co-crystallised with 2 mM D-2-CPA, MES pH 6.43, 277 K; product bound in active site.
For data set [2], the system named is C[C@@H](Cl)C(=O)O. The data set can be described thus: purified protein. The note with it: 100 mM glycine-NaOH pH 10.0, 30 °C.
Substrate in data set [3]: C[C@@H](Cl)C(=O)O
The experiment in a line: purified protein. To be noted: 100 mM glycine-NaOH pH 10.0, 30 °C. The source holds these as a separate data set.

Regarding `C[C@H](O)C(=O)O` [L-LA, L-lactic acid], in data set [1], the “X-ray crystal structure, 2.18 Å” value is “HadD AJ1 was able to bind the product L-LA in the active site”.

The Km is the concentration of substrate that gives half-maximal velocity. By kcat is commonly meant the maximal rate divided by the concentration of active sites. For “HadD AJ1 (D-2-haloacid dehalogenase, D-DEX) (Pseudomonas putida; D205E)”, in data set [2], the Km is 4.13 mM and the kcat came to 5.5 s⁻¹.

Regarding “HadD AJ1 (D-2-haloacid dehalogenase, D-DEX) (Pseudomonas putida; N203A)”, in data set [2], the Km is recorded as 12.00 mM and the catalytic constant (kcat) came to 0.59 s⁻¹. Regarding “HadD AJ1 (D-2-haloacid dehalogenase, D-DEX) (Pseudomonas putida; V51F)”, in data set [2], the Michaelis constant (Km) came to 2.90 mM and the kcat came to 12.6 s⁻¹.

B1: D-2-haloacid dehalogenase HadD AJ1 from Pseudomonas putida AJ1/23, wild type (enzyme)
chain: MNLPDNSIHLQLPRPVCEAIIRPVPEHRADQELSEIYRDLKATFGVPWVGVITQAVAYYRPFFAEAWRRFAPSAKTHFFERASDDIRIRSWELMGQSFVIEGQTDRLREMGYSVREIGQIRAVLDIFDYGNPKYLIFATAIKEGLLSGRTFGGAAGDARCHFPRSPICQIDPIPVMVEEHHAGGTLSQVYADIKQTLQLPFINSDYKAMARWPSYLEQAWGALKPCIDTPAYQAGRFDINARALAALDALPTAYRMSRDDALQAGLSEAQTDELIQVISLFQWMLSGLVLNVTHFKQQALK
notes: D-2-haloacid dehalogenase HadD AJ1, Pseudomonas putida strain AJ1/23; the 909 bp hadd aj1 gene (ENA AAA25831.1) subcloned into pET-28a between NcoI and XhoI; Homotetramer in the crystal; it gives no residue limits; also called WT; D-DEX
For the molecule B1, in data set [3], the Michaelis constant (Km) is on record as 0.94 mM and the kcat worked out at 16.4 s⁻¹.

The record behind these values is publication PMC5780510, “Insights into the molecular mechanism of dehalogenation catalyzed by D-2-haloacid dehalogenase from crystal structures” (Scientific Reports, 2018).
